{"source": "patent US4770870A", "about": "“Method for reducing pain associated with the administration of 4-sulfido-oxazaphosphorines and 4-sulfoalkylthio-oxazaphorphorines” (Asta Pharma Aktiengesellschaft, priority 1981, dated 1988)", "key": {"[1]": {"experiment": "Acute toxicity (LD50), NMRI-mouse", "details": "for LD50 (30 days observation time) / LD50 (90 days observation time): female NMRI-mice"}, "L1210 leukemia cells": {"system": "L1210 leukemia cells", "experiment": "L1210 leukemia on the mouse, intraperitoneal chemotherapy", "details": "L1210, mole ratio 1:5 for combination"}}}
{"compound": "O=P1(N(CCCl)CCCl)NC(SCCO)CCO1", "note": "(centres unmarked)", "values": [{"measurement": "LD50 (30 days observation time)", "setting": "[1]; intraperitoneal, 20 ml/kg", "result": 238, "unit": "mg/kg"}, {"measurement": "LD50 (90 days observation time)", "setting": "[1]; intraperitoneal, 20 ml/kg", "result": 160, "unit": "mg/kg"}, {"measurement": "LD50", "setting": "[1]; intraperitoneal, injection volume 200 ml/kg, based on the P1 component, mole ratio P1:cysteine 1:5 for the combination", "result": 460, "unit": "mg/kg"}, {"measurement": "LD50", "setting": "[1]; intravenous, P1 itself (without cysteine)", "result": 290, "unit": "mg/kg"}, {"measurement": "LD50 (30 days observation time)", "setting": "[1]; intravenous", "result": 290, "unit": "mg/kg"}, {"measurement": "LD50 (90 days observation time)", "setting": "[1]; intravenous", "result": 215, "unit": "mg/kg"}, {"measurement": "increase of the LD50", "setting": "[1]; slower intravenous or intraperitoneal dosage, mouse, in the presence of a 5 fold molar excess of cysteine", "result": "3-4 fold"}, {"measurement": "therapeutic breadth TI50 (quotient of LD50 and CD50)", "setting": "L1210 leukemia cells", "result": 3.5}]}
